# Apparent affinities of Ab-14 variants for a coronavirus HR2 peptide

Antigen: PDVDLGDISGINAS, a 14-residue peptide of the SARS-CoV-2 spike HR2 region.

The variants keep the heavy chain, the linker and the frameworks of Ab-14 (scFv order VH, a (GGGGS)3 linker, VL).
VH: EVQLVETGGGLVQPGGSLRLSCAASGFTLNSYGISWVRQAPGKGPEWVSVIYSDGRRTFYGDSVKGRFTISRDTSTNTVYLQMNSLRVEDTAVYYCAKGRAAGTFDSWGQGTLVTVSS
VL: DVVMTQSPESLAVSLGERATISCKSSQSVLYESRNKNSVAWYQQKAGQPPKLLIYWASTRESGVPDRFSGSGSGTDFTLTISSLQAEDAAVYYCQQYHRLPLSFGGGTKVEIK

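The library (AAYL50) carries one to three amino acid substitutions per variant, with no insertions or deletions. The assay is AlphaSeq: two haploid yeast populations carry antibody and antigen on their surface. Mating (16 h, 30 °C) was followed by selection of diploids and sequencing of their barcodes. Scores were corrected for input abundance and mapped to Kd with protein pairs of known affinity run in the same pool. Each pool was mated in three replicate cultures.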

Each variant is given by its three light chain CDRs, as the data file delimits them; those of the parent are KSSQSVLYESRNKNSVA, WASTRES, QQYHRLPLS.
The read-out is the apparent dissociation constant on a log10 scale (nM): the lower, the stronger.
"nd" marks a missing value. The strain was present, yet no cells mated with the target were sequenced in that replicate, which points to weak or no binding.
Empty control strains, which show no peptide, gave a signal in 18% of pairings with library AAYL50; the median was 4.19 and 95% of these signals were weaker than 2.99. No background was subtracted. For each scFv, signals with the empty controls are counted beside the result, with their mean in brackets.
In this assay the parent's reference entry averaged 0.65; its copy inside this library read 1.68.

| CDR-L1 | CDR-L2 | CDR-L3 | log10 Kd, replicates | signal with controls |
|---|---|---|---|---|
| KSSQSVLYESMNKGSVA | WASTRES | QQPHRLPLS | nd 2.95 nd | 1/9 (3.40) |
| KSSQSVLYECRNKNSVA | WASTRES | QQYHRTPKS | nd 4.28 nd | 1/9 (4.23) |
| KSSQSVLYRSRNKNSVA | WASTVES | QHYHRLPLS | 3.29 nd nd | 1/9 (3.73) |
| KSSSSVLYESRNKNSVA | WASTRES | KQYKRLPLS | nd nd nd | 1/9 (3.59) |
| KSWQSVLYESRNKNSVA | WASTRES | QPYHRLPLK | nd 3.99 nd | 3/9 (3.30) |
| KSSQEVLYESRNKNSTA | WASTRES | QQNHRLPLS | 4.01 nd nd | 2/9 (4.32) |
| KCSQSVLNESRNKNSVA | WLSTRES | QQYHRLPLS | 2.05 1.81 1.97 | 0/9 |
| KSSQWVLYESRYSNSVA | WASTRES | QQYHRLPLS | 1.12 1.34 1.05 | 0/9 |
| KSSQSVLYESRNKNQWA | WASTDES | QQYHRLPLS | nd nd nd | 2/9 (3.52) |
| KSSQSVLYESRNDNSVA | WKSTRES | QQYHRLPLS | 4.07 2.88 3.69 | 2/9 (4.62) |
| KSSQSVLYESRNKNSVA | WASDRES | QQYHRLPLG | 1.16 1.66 1.61 | 0/9 |
| KSSQSVLYESRNKNSVA | WASTRES | VDYHRLVLS | nd nd 4.62 | 0/9 |
| KSSQSVLYEIRNNNSVA | WASTNES | QQYHRLPLS | nd 4.75 nd | 1/9 (4.52) |
| KESQSVLYESRKKNSVA | WASTRES | QQYHRIPLS | 2.26 nd nd | 2/9 (2.54) |
| KSSQSVLYESRNKNSVA | AAHTRES | QQCHRLPLS | nd nd nd | 0/9 |
| KSSQSVLYEKYNKNSVA | WYSTRES | QQYHRLPLS | nd nd nd | 1/9 (4.18) |
| KPSQHVLYESRNKNSVA | WASTRES | QQYHRGPLS | 2.70 2.53 3.51 | 0/9 |
| FSSQSVLYESRNKNSVA | WASIRES | QQYHRLPLK | 2.02 1.90 1.99 | 4/9 (4.04) |
| TSSQSVLYESRNKNSVA | WASTKES | QQYWRLPLS | nd nd nd | 0/9 |
| KSSQSVLRESRNKNSVA | WASYRES | QQYHRLPLS | 2.57 2.57 2.85 | 1/9 (3.74) |
| KSSQVVLYESRNKNSVA | WISTRES | QIYHRLPLS | 3.33 nd nd | 0/9 |
| KSTQSVLYESRNKNSVA | WASTRES | QCYLRLPLS | nd 3.38 nd | 3/9 (4.09) |
| TSSQSCLYESRNKNSVA | WASTRES | QQYHRLPLT | 1.31 0.93 1.27 | 0/9 |
| KSSQRVLYESRNKQSVN | WASTRES | QQYHRLPLS | nd nd nd | 1/9 (3.22) |
| KSSTSVIYESRNKNSVA | WASSRES | QQYHRLPLS | 3.16 1.84 2.14 | 0/9 |
| KSSQSVLYESRNKNSVA | TAPTRES | QQYHRYPLS | 5.26 nd nd | 0/9 |
| KSSQSELLESRNKNSVA | WASTRES | QQYHRQPLS | 4.57 3.19 5.26 | 1/9 (5.13) |
| KSSQSVLYEHRNKNSVA | WASTRHS | QQIHRLPLS | nd nd nd | 1/9 (2.69) |
| KSSQSVLYESRMKNSVA | WASVRES | QQYHRLPLS | 0.34 0.58 0.50 | 1/9 (3.67) |
| KSSQSVHYESRWKNSVA | FASTRES | QQYHRLPLS | 1.98 1.97 2.15 | 1/9 (5.84) |
| KSSNSVLYESRNKISVA | WASTRES | QQMHRLPLS | nd nd nd | 3/9 (4.27) |
| KWSQSVLYESRNKNSQA | WASTRES | QQYHRLPLS | 4.85 4.09 4.12 | 3/9 (4.19) |
| TSSQSVLYEARNKNSVT | WASTRES | QQYHRLPLS | 3.83 4.95 nd | 2/9 (3.33) |
| KSTQSVLYESWNKNSVA | WASTRES | QQYHRLPLS | 1.99 1.91 1.96 | 4/9 (4.61) |
| KSSCSVSYESRNKNSEA | WASTRES | QQYHRLPLS | nd nd nd | 1/9 (3.40) |
| KSSQSVLYESRNKNSVA | WASHFES | SQYHRLPLS | nd nd nd | 1/9 (3.80) |
| KSSQSVLYESRNKNSIT | WASTRES | QQYHRLPLN | nd nd nd | 0/9 |
| KSSQSVLLESVNKNSVA | WASTRES | QQYHRLDLS | 4.03 4.48 nd | 2/9 (4.61) |
| KSSQSVKYESRNKNSVA | HASTRES | CQYHRLPLS | 2.99 3.56 2.89 | 1/9 (3.42) |

A selection of 2 entries from above:

{"CDR-L1": "KSSQSVLYESRNKNSVA", "CDR-L2": "AAHTRES", "CDR-L3": "QQCHRLPLS", "log10 Kd, replicates": "nd nd nd", "signal with controls": "0/9"}
{"CDR-L1": "KESQSVLYESRKKNSVA", "CDR-L2": "WASTRES", "CDR-L3": "QQYHRIPLS", "log10 Kd, replicates": "2.26 nd nd", "signal with controls": "2/9 (2.54)"}

Data: MIT Lincoln Laboratory AlphaSeq set, Engelhart et al. 2022, doi:10.1038/s41597-022-01779-4, as distributed in FLAb.